The source of these data is patent publication US5132429A, “Benzotriazole derivatives and fluorescence-emitting reagents thereof” (priority 1988, dated 1992).

The experiment deals with α1-AG (α1-acid glycoprotein). As to the kind of experiment: Binding constant of basic drug to α1-AG by displacement of compound 1 (fluorescence probe method, Klotz formula). The following applies: 3×10^-6 M α1-AG. The protocol: Two different kinds of solutions, one containing α1 -AG and a compound of this invention listed above, the other containing α1 -AG, the compound of this invention, and a drug, are prepared to measure fluorescence intensity at the excitation. fluorescence wavelength, as shown in Table 2. According to the working curve made beforehand, the binding rate of the compound to α1 -AG in each solution is determined and the binding constant of a drug to α1-AG is calculated from the difference between the binding rates in the presence and the absence of a drug.
In the fluorescence cell made of quartz with a plug was placed the buffer solution of 0.1M phosphoric acid (2 ml) which pH is 7.4 and containig 1×10^-4 M α1 -AG, to which 5×10^-4 M aqueous solution of the compound 1 was added by 2 μl each with a microcylinder, which was prepared by dissolving about 3 mg of the compound 1 in 1N hydrochloric acid (1 ml), followed by diluting with water to make the total volume 200 times, and the resulting solution was mixed fully to determine fluorescence intensity at 508 nm (excitation wavelength: 418 nm).
For the buffer solution of 0.1M phosphoric acid (2 ml) which pH is 7.4 and containing 3×10^-6 M α1 -AG, the same procedure as in Example 1 was performed.
As for the other basic drugs shown in Table 3, binding constant were obtained according to the same manner as in Example 11.

In the case of `CN(C)CCCN1c2ccccc2Sc2ccc(Cl)cc21` [Chloropromazine], where the note is “0.1M phosphoric acid buffer pH 7.4, compound 1 as probe”, the “log Kb (binding constant)” value was determined as 6.46. For the setting “1×10^-6 M chloropromazine, pH 7.4”, the “inhibition of the binding of the compound 1 to α1-AG” value is recorded as “inhibited”.
